## Antibody variant affinities, Ab-14 heavy chain, assay B

Target peptide (SARS-CoV-2 spike, HR2 region): PDVDLGDISGINAS

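The parent was found by panning a naive human phage display library on the peptide. These sequences belong to a second round, designed from the earlier measurements on random variants of the parent. Their group label is 14H_En_HC (En: ensemble of fine-tuned language models; HC: hill climbing; a sequence that several methods proposed may carry one label only). The assay is AlphaSeq: two haploid yeast populations carry antibody and antigen on their surface. Mating (16 h, 30 °C) was followed by selection of diploids and sequencing of their barcodes. Each replicate has its own calibration line, from reference interactions of the BCL2 family. Each pool was mated in six replicate cultures.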

Parent scFv Ab-14: VH joined to VL by three GGGGS repeats. Changes lie in the heavy chain CDRs alone.
VH: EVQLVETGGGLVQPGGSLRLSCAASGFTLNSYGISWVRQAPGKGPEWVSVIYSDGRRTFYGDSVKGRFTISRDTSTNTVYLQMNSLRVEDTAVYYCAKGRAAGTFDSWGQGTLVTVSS
VL: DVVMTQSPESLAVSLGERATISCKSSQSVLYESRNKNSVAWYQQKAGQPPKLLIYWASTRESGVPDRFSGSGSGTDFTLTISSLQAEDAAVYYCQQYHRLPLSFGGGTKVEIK

Each variant is given by its three heavy chain CDRs, as the data file delimits them; those of the parent are GFTLNSYGIS, VIYSDGRRTFYGDSVK, GRAAGTFDS.
Scale: log10 of Kd in nM, estimated from mating counts; low values are strong binders.
A mean of the replicates is given; it leaves out those without a signal.
A pair that was not seen in that replicate is written "nd"; this usually means weak binding, but a binder can also be missed.
Nonspecific signal, from three strains lacking the peptide, appeared in 1% of pairings of all heavy chain designs, centred on 2.08 (5% of these signals below 0.84); values are not corrected for it. Also given: how often the same scFv was detected with the empty control strains, with their mean in brackets.

{"CDR-H1": "GFDLDEYGIS", "CDR-H2": "VIYADGRRTFYQDSVK", "CDR-H3": "GQAAGTFDI", "log10 Kd, replicates": "-0.57 -0.74 -0.42 -1.24 -0.33 -0.09", "mean, log10 nM": "-0.56", "signal with controls": "1/18 (1.13)"}
{"CDR-H1": "GFDLNEYGIS", "CDR-H2": "VIYADGRRTAYIDSVK", "CDR-H3": "GNVAGTFDS", "log10 Kd, replicates": "-0.29 -0.56 -0.75 -0.54 -0.49 -0.19", "mean, log10 nM": "-0.47", "signal with controls": "0/18"}
{"CDR-H1": "GFDLDEYGIS", "CDR-H2": "VIYADGRRTFYKDSVK", "CDR-H3": "GSNAGTFDV", "log10 Kd, replicates": "-0.77 0.46 1.44 -0.27 -0.84 0.03", "mean, log10 nM": "0.01", "signal with controls": "0/18"}
{"CDR-H1": "GFDLNEYGIS", "CDR-H2": "VIYADGRRTSYIDSVK", "CDR-H3": "GEVAGTFDA", "log10 Kd, replicates": "0.24 -0.39 -0.40 -0.14 -0.18 -0.41", "mean, log10 nM": "-0.21", "signal with controls": "0/18"}
{"CDR-H1": "GFDLNEYGIS", "CDR-H2": "VIYADGRRTFYSDNVK", "CDR-H3": "GQNAGTFDV", "log10 Kd, replicates": "-0.52 -0.17 -0.52 -0.76 -0.41 -0.24", "mean, log10 nM": "-0.44", "signal with controls": "0/18"}
{"CDR-H1": "GFDLNEYGIS", "CDR-H2": "VIYADGRRTQYIDSVK", "CDR-H3": "GNQAGTFDF", "log10 Kd, replicates": "0.33 0.05 0.03 0.18 0.11 -0.16", "mean, log10 nM": "0.09", "signal with controls": "1/18 (2.68)"}
{"CDR-H1": "GFDLNEYGIS", "CDR-H2": "VIYADGRRTFYADSVK", "CDR-H3": "GNVAGTFIS", "log10 Kd, replicates": "-0.04 -0.33 nd nd nd nd", "mean, log10 nM": "-0.19", "signal with controls": "0/18"}
{"CDR-H1": "GFDLNEYGIS", "CDR-H2": "VIYADGVRKFYADKVK", "CDR-H3": "GENAGTFDV", "log10 Kd, replicates": "0.24 0.20 0.52 0.01 -0.09 1.14", "mean, log10 nM": "0.34", "signal with controls": "0/18"}
{"CDR-H1": "GFDLNEYGIS", "CDR-H2": "VIYADGRRTFYADSVK", "CDR-H3": "GNNAGTFTL", "log10 Kd, replicates": "2.13 1.45 1.95 nd 1.45 3.13", "mean, log10 nM": "2.02", "signal with controls": "0/18"}
{"CDR-H1": "GFDLNEYGIS", "CDR-H2": "VIYADGRRTFYSDSVK", "CDR-H3": "GQAAGTFDS", "log10 Kd, replicates": "-0.05 -0.03 -1.05 -0.10 -0.93 -0.46", "mean, log10 nM": "-0.44", "signal with controls": "0/18"}
{"CDR-H1": "GFDLNEYGIS", "CDR-H2": "VIYADGRRTAYADSVK", "CDR-H3": "GQAAGTFDI", "log10 Kd, replicates": "-0.36 -0.34 -0.58 -0.65 -0.59 -0.47", "mean, log10 nM": "-0.50", "signal with controls": "0/18"}
{"CDR-H1": "GFDLNEYGIS", "CDR-H2": "VIYADGRRTAYSDSVK", "CDR-H3": "GEVAGTFVM", "log10 Kd, replicates": "-0.05 -0.15 -0.49 -0.51 -0.52 -0.50", "mean, log10 nM": "-0.37", "signal with controls": "0/18"}
{"CDR-H1": "GFDLNEYGIS", "CDR-H2": "VIYADGRRTGYADSVK", "CDR-H3": "GNEAGTFDS", "log10 Kd, replicates": "-0.21 -0.24 -0.45 -0.54 -0.39 -0.21", "mean, log10 nM": "-0.34", "signal with controls": "0/18"}
{"CDR-H1": "GFNLNEYGIS", "CDR-H2": "VIYADGRRTFYSNSVK", "CDR-H3": "GETAGTFDV", "log10 Kd, replicates": "0.04 -0.01 -0.43 -0.36 0.04 0.06", "mean, log10 nM": "-0.11", "signal with controls": "0/18"}
{"CDR-H1": "GFDLNEYGIS", "CDR-H2": "VIYADGRRTAYVDSVK", "CDR-H3": "GQVAGTFDV", "log10 Kd, replicates": "-0.26 -0.57 -0.68 -0.79 -0.91 -0.19", "mean, log10 nM": "-0.57", "signal with controls": "1/18 (1.59)"}
{"CDR-H1": "GFDLNDYGIS", "CDR-H2": "VIYADGRRTAYIDSVK", "CDR-H3": "GEAAGTFDL", "log10 Kd, replicates": "-0.63 -0.43 -0.41 -0.35 -0.53 0.46", "mean, log10 nM": "-0.31", "signal with controls": "0/18"}
{"CDR-H1": "GFDLNEYGIS", "CDR-H2": "VIYADGLRTFYTDSVK", "CDR-H3": "GQLAGTFDT", "log10 Kd, replicates": "-0.26 -0.99 -0.63 -0.91 -0.97 -0.30", "mean, log10 nM": "-0.68", "signal with controls": "0/18"}
{"CDR-H1": "GFDLEDYGIS", "CDR-H2": "VIYADGRRTFYADSVK", "CDR-H3": "GNVAGTFDV", "log10 Kd, replicates": "0.37 0.34 0.36 -0.08 0.61 0.11", "mean, log10 nM": "0.28", "signal with controls": "0/18"}
{"CDR-H1": "GFDLNEYGIS", "CDR-H2": "VIYADGRRTFYSDSVK", "CDR-H3": "GGNAGTFDV", "log10 Kd, replicates": "-0.55 -0.70 -0.76 -0.72 -0.82 -0.51", "mean, log10 nM": "-0.68", "signal with controls": "0/18"}
{"CDR-H1": "GFDLNEYGIS", "CDR-H2": "VIYADGRRTFYADSVK", "CDR-H3": "GEVAGTFVQ", "log10 Kd, replicates": "-0.51 -0.13 -0.55 -0.13 -0.13 0.21", "mean, log10 nM": "-0.21", "signal with controls": "0/18"}
{"CDR-H1": "GFDLNEYGIS", "CDR-H2": "VIYADGQRTFYDDSVK", "CDR-H3": "GQLAGTFDL", "log10 Kd, replicates": "0.67 0.49 0.35 0.62 0.53 0.25", "mean, log10 nM": "0.49", "signal with controls": "0/18"}

For reference, 2 entries of the list once more:

{"CDR-H1": "GFDLNEYGIS", "CDR-H2": "VIYADGRRTAYIDSVK", "CDR-H3": "GNVAGTFDS", "log10 Kd, replicates": "-0.29 -0.56 -0.75 -0.54 -0.49 -0.19", "mean, log10 nM": "-0.47", "signal with controls": "0/18"}
{"CDR-H1": "GFDLDEYGIS", "CDR-H2": "VIYADGRRTFYKDSVK", "CDR-H3": "GSNAGTFDV", "log10 Kd, replicates": "-0.77 0.46 1.44 -0.27 -0.84 0.03", "mean, log10 nM": "0.01", "signal with controls": "0/18"}

The parent sequence was in this pool as ten entries: three were never detected, three once, and four in most replicates, with averages from 0.34 to 2.37.
The authors' rule: three or more of the six replicates give a measured affinity, fewer mean a poor binder.
The range of this assay differs from that of the first round, and the authors advise against merging the two.

The measurements come from Li et al. 2023 (doi:10.1038/s41467-023-39022-2) through the FLAb antibody collection.